# Test results from PubChem BioAssay AID493036 (Sanford-Burnham Center for Chemical Genomics, 2011).
# Protein sequences, listed by entry. Tags and fused reporters are not part of them.
# UniProt P30989, whole entry: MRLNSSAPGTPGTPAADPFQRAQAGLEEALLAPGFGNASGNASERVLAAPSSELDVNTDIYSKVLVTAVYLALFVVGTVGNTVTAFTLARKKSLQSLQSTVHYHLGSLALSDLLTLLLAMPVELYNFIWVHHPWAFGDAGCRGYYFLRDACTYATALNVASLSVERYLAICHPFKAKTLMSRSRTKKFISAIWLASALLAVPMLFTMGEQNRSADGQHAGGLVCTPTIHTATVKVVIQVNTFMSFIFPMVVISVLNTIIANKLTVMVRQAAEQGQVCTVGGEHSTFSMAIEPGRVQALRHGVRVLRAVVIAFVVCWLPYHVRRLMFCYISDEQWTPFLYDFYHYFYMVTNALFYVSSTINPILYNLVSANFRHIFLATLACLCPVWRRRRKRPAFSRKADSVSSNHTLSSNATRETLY
# Only a part is listed here, and it is no random draw. Some of these compounds have results that are not shown, active ones among them. Activity calls are given as the source filed them.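 The calls were made as follows: active = activation at or above 40% of the spot to cytoplasm intensity ratio, with at least 20 cells analyzed; inconclusive = wells under 20 cells, flagged as cytotoxic or low count; inactive = the rest.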
# Target: Neurotensin receptor type 1 (Homo sapiens) (UniProt P30989)
# Assay: NTR1-driven beta-arrestin-GFP spot formation – imaging, U2OS cells, high content, primary screen (AID 493036) (AID 493036);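 also: 0% = DMSO without peptide and 100% = 100 nM NTR1 peptide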
# Details: agonist mode, at 20 µM, active compounds read high
row,Structure (SMILES),activation
1,O=C(OC1CN2CCC1CC2)C(CO)(c1ccccc1)c1ccccc1 (centres undefined),inactive: -0.3%
2,COc1ccc(Br)c(C(=O)NCC2(N3CCCCC3)CCCCC2)c1,inactive: 0.2%
3,CN(C)c1cccc(C(=O)NCC2(N(C)C)CCCCC2)c1,inactive: -0.1%
4,CC(C)Oc1ccc(C(=O)NCC2(N(C)C)CCCCC2)cc1,inactive: -2.1%
5,CN(C)C1(CNC(=O)c2ccc(Br)cc2)CCCCC1,inactive: -1%
6,COc1cc(C(=O)NCC2(N(C)C)CCCCC2)c([N+](=O)[O-])cc1OC,inactive: 0.9%
7,COc1ccc(Cl)cc1C(=O)NCC1(N(C)C)CCCCC1,inactive: -0.4%
8,COc1cccc(C(=O)NCC2(N3CCCCC3)CCCCC2)c1,inactive: -1.1%
9,O=C(NCC1(N2CCCCC2)CCCCC1)c1cccc(Cl)c1,inactive: -0.2%
10,CN(C)c1ccc(C(=O)NCC2(N(C)C)CCCCC2)cc1,inactive: 0.7%
11,CN(C)C1CCCC1OC(=O)C(O)(c1ccccc1)c1ccccc1 (centres undefined),inactive: -0.7%
12,Cc1ccccc1C(=O)NCC1(N2CCCCC2)CCCCC1,inactive: -1.3%
13,O=C(NCC1(N2CCCCC2)CCCCC1)c1cc(F)c(F)cc1Cl,inactive: 0.5%
14,C=CCN1CCN(CCOC(=O)C(O)(c2ccccc2)c2ccccc2)CC1,inactive: 1%
15,O=C(NCC1(N2CCCCC2)CCCCC1)c1cccc(Br)c1,inactive: 1.8%
16,CCN1CCCC(OC(=O)C2(O)c3ccccc3C=Cc3ccccc32)C1 (centres undefined),inactive: -0.2%
17,Cc1cc(C(=O)NCC2(N3CCCCC3)CCCCC2)ccc1[N+](=O)[O-],inactive: 0.1%
18,COc1ccc(C(=O)NCC2(N(C)C)CCCCC2)cc1,inactive: 1.5%
19,O=C(NCC1(N2CCCCC2)CCCCC1)c1cc([N+](=O)[O-])ccc1Cl,inactive: -1.5%
20,CN1[C@@H]2CC[C@H]1CC(OC(=O)C(O)(c1ccccc1)c1ccccc1)C2 (some centres undefined),inactive: 0.1%
21,CC(C)N1C(=O)CC2(CCN(CCOC(=O)C(O)(c3ccccc3)c3ccccc3)CC2)C1=O,inactive: 1.9%
22,COc1cc(SC)ccc1C(=O)NCC1(N(C)C)CCCCC1,inactive: -0.6%
23,CCN(CC)CC(C)C(C)OC(=O)C(O)(c1ccccc1)c1ccccc1 (centres undefined),inactive: 0.4%
24,Cc1ccc(C(=O)NCC2(N3CCCCC3)CCCCC2)cc1,inactive: -0.3%
